# Molecular target: MC4R H158R (Homo sapiens, UniProt P32245, H158R)
# Protein sequences, listed by entry. Tags and fused reporters are not part of them.
# UniProt P32245, whole entry H158R: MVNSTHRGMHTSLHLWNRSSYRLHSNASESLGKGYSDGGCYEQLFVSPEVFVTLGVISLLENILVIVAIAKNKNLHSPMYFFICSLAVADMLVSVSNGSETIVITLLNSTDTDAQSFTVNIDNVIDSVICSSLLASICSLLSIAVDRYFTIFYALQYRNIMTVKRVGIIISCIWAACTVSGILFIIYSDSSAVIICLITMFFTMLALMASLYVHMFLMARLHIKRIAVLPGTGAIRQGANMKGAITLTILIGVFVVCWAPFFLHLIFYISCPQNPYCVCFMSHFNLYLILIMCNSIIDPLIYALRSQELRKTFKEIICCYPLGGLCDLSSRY
# Assay type: cell-based
# Parameters: expressed in transfected cells; host or cells: HEK293
# Details: HEK293, β-arrestin2, 5 min, mean ± SEM, 3 to 7 experiments in triplicates
# Method: A total of 16–20 h after transfection in 6-well plates, cells were detached, and cell number was adjusted to 2.2 × 10^5 cells/mL in Opti-MEM without phenol red supplemented with 4% FBS. Cells were divided into two pools, adding either the acceptor NanoBRET™ Ligand 618 (1 µL/mL cells of 0.1 mM solution) or the same amount of DMSO as background control. After reseeding 90 µL cell suspension/well into a white 96-well plates, incubation was continued for 4–6 h.
# For measurements, 25 µL of NanoBRET™ substrate was injected using a plate reader (Mithras LB 940). Donor and acceptor emission were measured at 460 nm and 610 nm, respectively, and the BRET ratio was calculated by dividing acceptor emission by donor emission:(1) BRET ratio =emissionacceptor/emissiondonor
# The ratio was corrected for background bleed through by subtracting of the background ratio (no acceptor DMSO control) and conversion to milliBRET units (mBU):(2) corrected BRET ratio [mBU]=(BRET ratiosample−BRET rationo acceptor control)×1000
# To calculate the difference between stimulated and basal interaction, the NET BRET was acquired using the formula:(3) NET BRET = corrected BRET ratiostim− corrected BRET ratiobasal
compound,measurement,value
"CSCC[C@H](NC(=O)[C@H](CCCNC(=N)N)NC(=O)[C@H](Cc1ccc(O)cc1)NC(=O)[C@@H]1CCCN1C(=O)CNC(=O)[C@H](CCC(=O)O)NC(=O)[C@H](CC(=O)O)NC(=O)[C@H](CCCCN)NC(=O)[C@H](CCCCN)NC(=O)[C@H](CCC(=O)O)NC(=O)[C@H](C)N)C(=O)N[C@@H](CCC(=O)O)C(=O)N[C@@H](Cc1c[nH]cn1)C(=O)N[C@@H](Cc1ccccc1)C(=O)N[C@@H](CCCNC(=N)N)C(=O)N[C@@H](Cc1c[nH]c2ccccc12)C(=O)NCC(=O)N[C@@H](CO)C(=O)N1CCC[C@H]1C(=O)N1CCC[C@H]1C(=O)N[C@@H](CCCCN)C(=O)N[C@@H](CC(=O)O)C(=O)O [β-MSH, β-melanocyte stimulating hormone]",Emax,1.68 fold over WT basal
